## Binding of CDR-mutated scFvs to a peptide of the spike HR2 region

The measurements come from Li et al. 2023 (doi:10.1038/s41467-023-39022-2) through the FLAb antibody collection.

Target peptide (SARS-CoV-2 spike, HR2 region): PDVDLGDISGINAS

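Phage display of a naive human antibody library on the peptide gave the parent. Designed CDR sequences, proposed from the first random library and measured here. Several design methods are mixed in this list. AlphaSeq pools MATa yeast showing the antibodies with MATalpha yeast showing the peptide. Binding brings cells together so that they mate, and sequencing counts the barcode pairs among the diploids. A regression on co-assayed BCL2-family reference pairs converts the normalised counts of each replicate to an apparent Kd. The assay was run in six technical replicates.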

Parent scFv Ab-14: VH joined to VL by the linker GGGGSGGGGSGGGGS. Changes lie in the light chain CDRs alone.
VH: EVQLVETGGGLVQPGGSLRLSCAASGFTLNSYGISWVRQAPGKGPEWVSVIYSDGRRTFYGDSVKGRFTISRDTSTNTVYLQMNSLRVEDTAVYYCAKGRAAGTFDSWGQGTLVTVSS
VL: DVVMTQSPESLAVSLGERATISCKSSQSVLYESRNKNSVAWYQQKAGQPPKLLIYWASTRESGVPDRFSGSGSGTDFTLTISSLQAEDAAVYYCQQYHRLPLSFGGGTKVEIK

Substitutions are numbered in sequence along the VL above, starting at 1 (not Kabat). Variants here have at most six changes. Affinities are written as log10 Kd with Kd in nM; a lower number is a better binder. A mean of the replicates is given; it leaves out those without a signal. Where no diploid with the target was found in any replicate, the entry reads "no signal": below detection, most likely a poor binder, though not proof of it. Order: sorted from the lowest average up, undetected variants last.

With S25L V29C S38N W56E the result was -0.56 (6 of 6 replicates; controls 3 of 18). The variant S25L S26Q V29W S38N W56N gave -0.51 (6 of 6 replicates; controls 1 of 18). With K24H S25L S38N W56N the result was -0.47 (6 of 6 replicates; controls 0 of 18). With S25I V29E W56N E61C the result was -0.42 (6 of 6 replicates; controls 0 of 18). The variant S25L S33E W56H gave -0.38 (6 of 6 replicates; controls 0 of 18). The variant S25L V29D W56G showed -0.35 (6 of 6 replicates; controls 2 of 18). For S25Q S28E V29K L30M W56D, the assay gave -0.34 (6 of 6 replicates; controls 1 of 18). With S25V Q27T V29E Y31E T59L S62E the result was -0.33 (1 of 6 replicates; controls 0 of 18). The variant S25L L30P S38A W56N gave -0.30 (6 of 6 replicates; controls 0 of 18).

With S25L S26P V29A W56N T59Q the result was -0.27 (6 of 6 replicates; controls 0 of 18). For S25L S28G V29W W56G S62D, the assay gave -0.25 (6 of 6 replicates; controls 0 of 18). The variant S25V Q27G W56N showed -0.19 (6 of 6 replicates; controls 0 of 18). The variant S25F V29T W56N showed -0.19 (6 of 6 replicates; controls 0 of 18). With K24I S25L Y31D W56D the result was -0.17 (6 of 6 replicates; controls 0 of 18). With S25I V29Y W56N E61L the result was -0.16 (6 of 6 replicates; controls 0 of 18). The variant S25F Q27W V29N L30P W56N H98W showed -0.12 (6 of 6 replicates; controls 0 of 18). The variant S25V W56E T59C showed -0.12 (6 of 6 replicates; controls 0 of 18). With S25V N35M W56D E61M the result was -0.09 (6 of 6 replicates; controls 1 of 18).

The variant S25L V29E W56N S62Q showed -0.07 (6 of 6 replicates; controls 0 of 18). With S25G V29S Y31F W56Q the result was -0.03 (6 of 6 replicates; controls 0 of 18). The variant K24H S25Q Q27G W56N A57G S62E gave 0.09 (6 of 6 replicates; controls 2 of 18). With S25L S28N E32D W56S Q96S R99H the result was 0.10 (6 of 6 replicates; controls 3 of 18). For S28N, the assay gave 0.16 (2 of 6 replicates; controls 0 of 18). With S26G Q27P S28G W56G the result was 0.17 (6 of 6 replicates; controls 0 of 18). The variant S25V N35M W56E E61C showed 0.17 (6 of 6 replicates; controls 1 of 18). With S25F N35T W56N S58V the result was 0.18 (6 of 6 replicates; controls 0 of 18). The variant S25Q V29S Y31C W56D showed 0.19 (6 of 6 replicates; controls 4 of 18).

For S25L S26M W56H T59L S62D S103W, the assay gave 0.30 (6 of 6 replicates; controls 0 of 18). The variant S25L V29T E32D R34I W56S H98K gave 0.35 (6 of 6 replicates; controls 0 of 18). For S25V Q27P V29W S38A W56E, the assay gave 0.39 (6 of 6 replicates; controls 1 of 18). The variant S25V V29G W56D gave 0.69 (6 of 6 replicates; controls 1 of 18). The variant S28G R34A showed 0.78 (6 of 6 replicates; controls 1 of 18). With K24H Q27P W56K the result was 0.80 (6 of 6 replicates; controls 1 of 18). The variant S26L Q27T V29W W56H S62Q showed 1.04 (6 of 6 replicates; controls 0 of 18). With E32Q K36N W56S the result was 1.05 (6 of 6 replicates; controls 0 of 18). For W56G S103K, the assay gave 1.10 (6 of 6 replicates; controls 0 of 18).

The variant W56H S103F showed 1.14 (6 of 6 replicates; controls 0 of 18). With S25L S26R V29T R34H W56A Q96V the result was 1.27 (6 of 6 replicates; controls 2 of 18). The variant R34E W56G E61N L102V gave 1.51 (5 of 6 replicates; controls 0 of 18). The variant S25I Q96S H98I showed 1.65 (6 of 6 replicates; controls 1 of 18). For K24M S25Y, the assay gave 2.11 (1 of 6 replicates; controls 1 of 18). The variant K36N S103Q gave 2.27 (3 of 6 replicates; controls 1 of 18). The variant S25L N35M W56N S103M gave 2.32 (5 of 6 replicates; controls 2 of 18). With S28A S38P Y97V the result was no signal (0 of 6 replicates; controls 0 of 18). The variant K24S S25D A57G H98C L102I gave no signal (0 of 6 replicates; controls 0 of 18).

The variant Q27H V29H L102P gave no signal (0 of 6 replicates; controls 0 of 18). With Y31E H98S P101I the result was no signal (0 of 6 replicates; controls 0 of 18).

Excerpt, the first 7 entries:

changes	mean, log10 nM	detected	control signals
S25L V29C S38N W56E	-0.56	6 of 6	3 of 18
S25L S26Q V29W S38N W56N	-0.51	6 of 6	1 of 18
K24H S25L S38N W56N	-0.47	6 of 6	0 of 18
S25I V29E W56N E61C	-0.42	6 of 6	0 of 18
S25L S33E W56H	-0.38	6 of 6	0 of 18
S25L V29D W56G	-0.35	6 of 6	2 of 18
S25Q S28E V29K L30M W56D	-0.34	6 of 6	1 of 18

The parent sequence was in this pool as ten entries: three were never detected, three once, and four in most replicates, with averages from 0.34 to 2.37. A sequence measured in both rounds can read differently, since the two assays cover different ranges. As a blank, each scFv also met three strains without target: over all light chain designs, 4% of these pairings were detected, typically at 2.64 and seldom below 1.59. The control count says in how many pairings with the empty strains this scFv gave a signal. The authors' rule: three or more of the six replicates give a measured affinity, fewer mean a poor binder.